According to patent US20080138411A1, “Modified Release Formulations Of Selective Serotonin Re-Uptake Inhibitors” (priority 2002, published 2008):

Assay: Particle size measurement of Citalopram HBr, Paroxetine HCl and Fluoxetine HCl
Format: physicochemical
Conditions: Dist. Base: Volume
Protocol: Particle size measurements were conducted on Paroxetine HCl.

## CNCCC(Oc1ccc(C(F)(F)F)cc1)c1ccccc1.Cl (centres unmarked) [Fluoxetine HCl Provided by Supplier 1]
  Particle size, Mode: 18.600 µm
  Span: (D 20.0-D 10.0)/D50: Span: (D 20.0-D 10.0)/D50 = 0.158
